The list shows a part of the results, in another mix than the full data. Activity calls are given as the source filed them.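 The calls were made as follows: active = GFP response versus DMSO above a set limit, roughly screen mean plus 3 SD (cut at about 180% in these data); inconclusive = fewer than 70 cells counted for a yeast strain; inactive = the rest.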
Assay: modulators of MEP2-GFP levels in yeast, primary screen, S. cerevisiae, multiplex flow cytometry, MLPCN library (AID 2016);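 also: median GFP fluorescence of the barcode-gated MEP2-GFP cells per well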
Details: S. cerevisiae MEP2-GFP strain, 3 h, at 10 µM, stronger effect = higher value, 100% = DMSO control level

Q: Which GFP response vs DMSO does the source give for `CN(C)c1cccc(C(=O)NCC2(N3CCCCC3)CCCCC2)c1` here?
A: Its GFP response vs DMSO is inactive: 106%.

Q: Which GFP response vs DMSO does the source give for `COc1ccc(CN(CCCl)CCCl)cc1Cl` here?
A: The GFP response vs DMSO was inactive: 95.5%.

Q: With `CC(C)c1ccc(NC2CCN(C(=O)OC(C)(C)C)CC2)cc1` as the compound, how does the GFP response vs DMSO read?
A: The GFP response vs DMSO was inactive: 93.1%.

Q: With `O=C(NCC1(N2CCOCC2)CCCCC1)c1cc(F)c(F)cc1Cl` as the compound, how does the GFP response vs DMSO read?
A: The GFP response vs DMSO was inactive: 99.1%.

Q: Which GFP response vs DMSO does the source give for `COc1cc(OC)c(C(=O)NCC2(N(C)C)CCCCC2)cc1OC` here?
A: Its GFP response vs DMSO is inactive: 95%.

Q: For `CN1CCC(Nc2cccc(F)c2)CC1`, which GFP response vs DMSO is on record?
A: Its GFP response vs DMSO is inactive: 110%.

Q: Which GFP response vs DMSO does the source give for `O=C(NCC1(N2CCCCC2)CCCCC1)c1cncc(Br)c1` here?
A: Its GFP response vs DMSO is inactive: 105%.

Q: For `CCCOc1ccc(C(=O)NCC2(N(C)C)CCCCC2)cc1OC`, which GFP response vs DMSO is on record?
A: The GFP response vs DMSO was inactive: 89.4%.

Q: Which GFP response vs DMSO does the source give for `O=C(NCC1(N2CCCCC2)CCCCC1)c1ccc(OC(F)F)cc1` here?
A: The GFP response vs DMSO was inactive: 103%.

Q: With `O=C(NCC1(N2CCCCC2)CCCCC1)c1cccc([N+](=O)[O-])c1` as the compound, how does the GFP response vs DMSO read?
A: Its GFP response vs DMSO is inactive: 107%.

Q: With `N#CC1(Nc2ccccc2)CCN(CCc2ccccc2)CC1` as the compound, how does the GFP response vs DMSO read?
A: Its GFP response vs DMSO is inactive: 116%.

Q: With `CCN1CCC(Nc2ccc(Cl)cc2)CC1` as the compound, how does the GFP response vs DMSO read?
A: Its GFP response vs DMSO is inactive: 101%.

Q: Which GFP response vs DMSO does the source give for `O=C(NCC1(N2CCCCC2)CCCCC1)c1cccc(C(F)(F)F)c1` here?
A: The GFP response vs DMSO was inactive: 104%.

Q: With `COc1ccc(NC2CCN(C(=O)OC(C)(C)C)CC2)cc1` as the compound, how does the GFP response vs DMSO read?
A: The GFP response vs DMSO was inactive: 96%.

Q: For `CN1CCN(CCOC(=O)C(O)(c2ccccc2)c2ccccc2)CC1`, which GFP response vs DMSO is on record?
A: Its GFP response vs DMSO is inactive: 83.2%.

Q: With `O=C(NCC1(N2CCOCC2)CCCCC1)c1cc(=O)[nH]c2ccccc12` as the compound, how does the GFP response vs DMSO read?
A: Its GFP response vs DMSO is inactive: 94.2%.

Q: With `COc1cc(C(=O)NCC2(N3CCCCC3)CCCCC2)ccc1OC(F)F` as the compound, how does the GFP response vs DMSO read?
A: Its GFP response vs DMSO is inactive: 103%.

Q: Which GFP response vs DMSO does the source give for `CCOc1ccc(C)cc1CN(CCCl)CCCl` here?
A: Its GFP response vs DMSO is inactive: 94.1%.

Q: Which GFP response vs DMSO does the source give for `CCOC(=O)N1CCC(Nc2ccc(F)cc2)CC1` here?
A: Its GFP response vs DMSO is inactive: 105%.

Q: Which GFP response vs DMSO does the source give for `COc1ccc(NC2CCN(CCc3ccccc3)CC2)c(OC)c1` here?
A: The GFP response vs DMSO was inactive: 109%.

Q: For `O=C(NCC1(N2CCCCC2)CCCCC1)c1ccc(F)cc1`, which GFP response vs DMSO is on record?
A: Its GFP response vs DMSO is inactive: 102%.

Q: Which GFP response vs DMSO does the source give for `Cc1ccc(OCC(C)C)c(CN(CCCl)CCCl)c1` here?
A: Its GFP response vs DMSO is inactive: 93.7%.

Q: Which GFP response vs DMSO does the source give for `CCOC(=O)N1CCC(Nc2cccc(C)c2)CC1` here?
A: The GFP response vs DMSO was inactive: 104%.

Q: With `COc1cc(C(=O)NCC2(N(C)C)CCCCC2)ccc1OC(F)F` as the compound, how does the GFP response vs DMSO read?
A: Its GFP response vs DMSO is inactive: 101%.

Q: Which GFP response vs DMSO does the source give for `O=C(NCC1(N2CCCCC2)CCCCC1)c1cccs1` here?
A: Its GFP response vs DMSO is inactive: 104%.

Q: For `O=C(NCC1(N2CCCCC2)CCCCC1)c1ccc(=O)[nH]c1`, which GFP response vs DMSO is on record?
A: The GFP response vs DMSO was inactive: 157%.

Q: For `COc1ccc(C(=O)NCC2(N3CCCCC3)CCCCC2)c(OC)c1OC`, which GFP response vs DMSO is on record?
A: Its GFP response vs DMSO is inactive: 90.6%.

Q: With `CC(C)(C)OC(=O)N1CCC(N(C(=O)c2ccccc2)c2ccc(F)cc2)CC1` as the compound, how does the GFP response vs DMSO read?
A: Its GFP response vs DMSO is inactive: 167%.

Q: For `COc1ccc(C(=O)NCC2(N3CCCCC3)CCCCC2)cc1`, which GFP response vs DMSO is on record?
A: Its GFP response vs DMSO is inactive: 108%.

Q: Which GFP response vs DMSO does the source give for `CSc1ccccc1C(=O)NCC1(N2CCCCC2)CCCCC1` here?
A: Its GFP response vs DMSO is inactive: 110%.

Q: For `O=C(NCC1(N2CCOCC2)CCCCC1)c1cc2ccccc2o1`, which GFP response vs DMSO is on record?
A: Its GFP response vs DMSO is inactive: 97%.

Q: With `Cc1cc(C)cc(N(C(=O)c2ccccc2)C2CCN(C(=O)OC(C)(C)C)CC2)c1` as the compound, how does the GFP response vs DMSO read?
A: Its GFP response vs DMSO is inactive: 98.5%.

Q: Which GFP response vs DMSO does the source give for `O=C(NCC1(N2CCCCC2)CCCCC1)c1ccc(Cl)nc1` here?
A: Its GFP response vs DMSO is inactive: 94.8%.

Q: Which GFP response vs DMSO does the source give for `CCOC(=O)N1CCC(Nc2ccc(OC)cc2)CC1` here?
A: The GFP response vs DMSO was inactive: 103%.

Q: For `COc1ccc(Cl)cc1C(=O)NCC1(N2CCOCC2)CCCCC1`, which GFP response vs DMSO is on record?
A: Its GFP response vs DMSO is inactive: 102%.

Q: For `O=C(NCC1(N2CCCCC2)CCCCC1)c1ccc(Cl)s1`, which GFP response vs DMSO is on record?
A: Its GFP response vs DMSO is inactive: 94.1%.

Q: Which GFP response vs DMSO does the source give for `N#CC1(Nc2ccccc2)CCN(Cc2ccccc2)CC1` here?
A: Its GFP response vs DMSO is inactive: 104%.

Q: For `O=C(OC1CN2CCC1CC2)C1c2ccccc2Oc2ccccc21` (stereo unspecified), which GFP response vs DMSO is on record?
A: Its GFP response vs DMSO is inactive: 104%.

Q: Which GFP response vs DMSO does the source give for `CN1CCC(Nc2ccc(F)c(Cl)c2)CC1` here?
A: Its GFP response vs DMSO is inactive: 105%.

Q: With `CCOc1ncccc1C(=O)NCC1(N2CCOCC2)CCCCC1` as the compound, how does the GFP response vs DMSO read?
A: The GFP response vs DMSO was inactive: 108%.

Q: For `CCCOc1ccc(C(=O)NCC2(N(C)C)CCCCC2)cc1`, which GFP response vs DMSO is on record?
A: Its GFP response vs DMSO is inactive: 105%.

Q: Which GFP response vs DMSO does the source give for `O=C(O)C1(Nc2ccccc2)CCN(Cc2ccccc2)CC1` here?
A: The GFP response vs DMSO was inactive: 104%.

Q: With `CC(C)(C)OC(=O)N1CCC(Nc2ccccc2)CC1` as the compound, how does the GFP response vs DMSO read?
A: Its GFP response vs DMSO is inactive: 91.3%.

Q: With `CCC(CO)(C(=O)OC1CN2CCC1CC2)c1ccccc1` (stereo unspecified) as the compound, how does the GFP response vs DMSO read?
A: Its GFP response vs DMSO is inactive: 95.7%.

Q: For `COc1cccc(C(=O)N(c2cc(C)cc(C)c2)C2CCN(C(=O)OC(C)(C)C)CC2)c1`, which GFP response vs DMSO is on record?
A: The GFP response vs DMSO was inactive: 104%.

Q: For `COc1cc(OC)cc(C(=O)NCC2(N3CCOCC3)CCCCC2)c1`, which GFP response vs DMSO is on record?
A: Its GFP response vs DMSO is inactive: 94.8%.

Q: Which GFP response vs DMSO does the source give for `CCCOc1ccc(C)cc1CN(CCCl)CCCl` here?
A: The GFP response vs DMSO was inactive: 97.6%.

Q: Which GFP response vs DMSO does the source give for `CN1CCC(Nc2ccc(Cl)cc2)CC1` here?
A: Its GFP response vs DMSO is inactive: 102%.

Q: Which GFP response vs DMSO does the source give for `COc1cc(OC)cc(C(=O)NCC2(N3CCCCC3)CCCCC2)c1` here?
A: Its GFP response vs DMSO is inactive: 105%.

Q: For `Fc1ccccc1NC1CCN(Cc2ccccc2)CC1`, which GFP response vs DMSO is on record?
A: Its GFP response vs DMSO is inactive: 102%.

Q: With `Cc1ccc(C(=O)NCC2(N3CCCCC3)CCCCC2)o1` as the compound, how does the GFP response vs DMSO read?
A: Its GFP response vs DMSO is inactive: 128%.

Q: For `CCN1CCC(Nc2cccc(F)c2)CC1`, which GFP response vs DMSO is on record?
A: The GFP response vs DMSO was inactive: 100%.

Q: Which GFP response vs DMSO does the source give for `CN(C)c1ccc(C(=O)NCC2(N3CCCCC3)CCCCC2)cc1` here?
A: The GFP response vs DMSO was inactive: 97.1%.

Q: With `O=C(NCC1(N2CCCCC2)CCCCC1)c1ccco1` as the compound, how does the GFP response vs DMSO read?
A: The GFP response vs DMSO was inactive: 98%.

Q: With `CC(C)(C)OC(=O)N1CCC(N(C(=O)c2ccccc2)c2ccc(Cl)cc2)CC1` as the compound, how does the GFP response vs DMSO read?
A: The GFP response vs DMSO was inactive: 105%.

Q: With `N#Cc1ccc(C(=O)NCC2(N3CCCCC3)CCCCC2)cc1` as the compound, how does the GFP response vs DMSO read?
A: The GFP response vs DMSO was inactive: 110%.

Q: Which GFP response vs DMSO does the source give for `CCCN1CCC(Nc2cc(OC)cc(OC)c2)CC1` here?
A: The GFP response vs DMSO was inactive: 110%.

Q: Which GFP response vs DMSO does the source give for `c1ccc(CN2CCC(Nc3ccccc3)CC2)cc1` here?
A: The GFP response vs DMSO was inactive: 100%.

Q: With `CN(C)C1(CNC(=O)c2cccc(C#N)c2)CCCCC1` as the compound, how does the GFP response vs DMSO read?
A: Its GFP response vs DMSO is inactive: 104%.

Q: For `O=C(NCC1(N2CCOCC2)CCCCC1)c1cc(Br)ccc1Cl`, which GFP response vs DMSO is on record?
A: Its GFP response vs DMSO is inactive: 98%.

Q: For `COc1cc(C(=O)NCC2(N3CCOCC3)CCCCC2)cc(OC)c1C`, which GFP response vs DMSO is on record?
A: Its GFP response vs DMSO is inactive: 104%.

Q: For `COc1ccc(C(=O)NCC2(N3CCOCC3)CCCCC2)cc1OC`, which GFP response vs DMSO is on record?
A: Its GFP response vs DMSO is inactive: 90.9%.

Q: With `N/C(=N\O)c1c(N)no[n+]1[O-]` as the compound, how does the GFP response vs DMSO read?
A: Its GFP response vs DMSO is inactive: 99%.

Q: For `CCOC(=O)N1CCC(Nc2ccc(C)cc2)CC1`, which GFP response vs DMSO is on record?
A: The GFP response vs DMSO was inactive: 83.6%.

Q: With `CCc1cc(C(=O)NCC2(N3CCCCC3)CCCCC2)sc1C` as the compound, how does the GFP response vs DMSO read?
A: The GFP response vs DMSO was inactive: 93.1%.

Q: Which GFP response vs DMSO does the source give for `O=C(OC1CN2CCC1CC2)C1c2ccccc2C=Cc2ccccc21` (stereo unspecified) here?
A: Its GFP response vs DMSO is inactive: 101%.

Source: PubChem BioAssay AID2016 (NMMLSC, 2009)
